Test results from PMC12722636, “Structural Pharmacology of Bufotenine Derivatives in Activating the 5-HT1A Receptor for Therapeutic Potential in Depression and Anxiety” (Research, 2025).

Chains of the proteins cited; added tags and fusions are not shown.
UniProt P08908, whole entry: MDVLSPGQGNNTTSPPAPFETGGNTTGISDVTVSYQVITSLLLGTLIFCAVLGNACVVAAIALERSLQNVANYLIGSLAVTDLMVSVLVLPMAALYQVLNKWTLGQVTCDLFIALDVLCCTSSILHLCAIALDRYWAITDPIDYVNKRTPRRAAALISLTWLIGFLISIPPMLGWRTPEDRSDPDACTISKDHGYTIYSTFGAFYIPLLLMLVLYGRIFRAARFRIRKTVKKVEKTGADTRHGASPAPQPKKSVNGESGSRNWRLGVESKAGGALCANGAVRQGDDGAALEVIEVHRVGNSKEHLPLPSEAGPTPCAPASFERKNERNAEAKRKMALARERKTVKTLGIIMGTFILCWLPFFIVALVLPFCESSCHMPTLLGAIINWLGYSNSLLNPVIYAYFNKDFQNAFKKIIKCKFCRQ

Target: 5-HT1A receptor (Homo sapiens, UniProt P08908)
Assay: GloSensor cAMP assay, 5-HT1A Gi signaling in HEK 293T cells
Format: cell-based

With `COc1ccc2[nH]cc(CCN(C)C)c2c1` [Compound 5-MeO-DMT, 5-methoxy-N,N-dimethyltryptamine] the EC50 was 500 nM.
